Results taken from patent US20080312151A1.

Biological target: FSH receptors
Assay: cell-based or functional assay

Row | amount of released cAMP (in vitro bioactivity assay) | Substance
1 | 1 ng/mL | recombinant bFSHβCTPα (single chain recombinant bovine FSH analog) (ligand)
2 | < 1000 ng/mL | Folltropin®-V, a commercial porcine FSH preparation (Bioniche Animal Health) (from UniProt P01219 25-120; P01228 21-129) (ligand)
